Source: ChEMBL document CHEMBL4229477, “Reevaluating the Substrate Specificity of the L-Type Amino Acid Transporter (LAT1)” (J Med Chem, 2018)

The chains behind the UniProt entries cited, without tags or fusion partners. Where a name states a change or a piece, a line headed by the entry shows the natural chain unless it says otherwise.
UniProt Q01650: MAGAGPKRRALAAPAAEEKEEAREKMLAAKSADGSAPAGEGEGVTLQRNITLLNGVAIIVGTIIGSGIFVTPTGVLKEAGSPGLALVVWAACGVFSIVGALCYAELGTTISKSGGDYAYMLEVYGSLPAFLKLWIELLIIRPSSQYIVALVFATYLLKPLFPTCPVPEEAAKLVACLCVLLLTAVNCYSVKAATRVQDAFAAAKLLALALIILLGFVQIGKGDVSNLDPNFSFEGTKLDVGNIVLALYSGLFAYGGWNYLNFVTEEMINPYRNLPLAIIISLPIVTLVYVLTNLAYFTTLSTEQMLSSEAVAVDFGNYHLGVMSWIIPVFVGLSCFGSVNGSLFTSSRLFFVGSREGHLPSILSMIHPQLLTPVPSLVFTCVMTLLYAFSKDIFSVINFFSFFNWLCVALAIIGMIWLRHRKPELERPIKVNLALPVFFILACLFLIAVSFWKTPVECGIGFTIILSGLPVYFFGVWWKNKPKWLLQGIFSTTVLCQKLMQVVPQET

Tests used:
[1] = target: Large neutral amino acids transporter small subunit 1 (Homo sapiens) (UniProt Q01650); test: Trans-stimulation of human LAT1 expressed in TREx HEK293 cells assessed as induction of [3H]-gabapentin efflux at 200 uM after 3 mins by scintillation counting analysis relative to L-phenylalanine; assay type: cell-based
[2] = target: Large neutral amino acids transporter small subunit 1 (Homo sapiens) (UniProt Q01650); test: Cis-inhibition of human LAT1 expressed in TREx HEK293 cells at 200 uM assessed as inhibition of [3H]-gabapentin uptake at 200 uM preincubated for 3 mins at 37 degC followed by washing with choline buffer and measured after 3 hrs by scintillation counting analysis relative to BCH; assay type: cell-based

Activity [1]	inhibition [2]	SMILES
89%	99%	N[C@@H](Cc1ccncc1)C(=O)O
130%	98%	N[C@@H](Cc1cccnc1)C(=O)O
140%	84%	N[C@@H](Cc1ccccn1)C(=O)O
20%	8.9%	N[C@@H](Cc1ccc(C(=O)O)cc1)C(=O)O

Further lines, the molecule ahead of its results:

SMILES	Activity [1]	inhibition [2]
C[C@](N)(Cc1ccccc1)C(=O)O	100%	
N[C@H](CC1CCCCC1)C(=O)O	130%	42%
Cn1cnc(C[C@H](N)C(=O)O)c1	85%	
N[C@@H](CC1CCCCC1)C(=O)O	120%	32%
C[C@@](N)(Cc1ccccc1)C(=O)O	100%	
